Data as given in US20130071496A1, “CONTROLLED RELEASE COMPOSITION CONTAINING A STRONTIUM SALT” (Osteologix A/S, priority 2003, published 2013).

Description: The solubility of the organic carboxylic acid strontium salts, were measured in water. The solubility of these salts was also measured as a function of temperature. This was performed by incubating the saturated solutions of the salts in temperature controlled incubators.
The buffered solutions were immersed into a bath of water temperature controlled at either room temperature (22-24° C.), at 30° C. or at 40° C. […] In order to eliminate any reminiscent strontium chloride influence on the determination of solubility, all the precipitate was collected at the bottom of the test tubes and the solutions above the precipitate were carefully removed and substituted by fresh solutions. […] From these solutions, the dissolved proportions of the strontium salt were collected in volumes of 1 mL at the specified temperature. The solutions were diluted to 50 mL before analysis by Flame Atomic Absorption Spectrometry (F-AAS).
Two methods were used for quantification of strontium in solutions: Flame Atomic Absorption Spectrometry (F-AAS), and the more sensitive inductively-coupled-plasmamass spectrometry (ICP-MS).
The solubilities were investigated as described above, and strontium content in the saturated solutions determined as described here below.
Some of the very soluble strontium salts were further diluted before analysis by F-AAS. The measurements were performed by using a Perkin-Elmer 2100 equipped with a hydrogen lamp for correction of the background signal. Strontium was measured at a slit with of 0.2 nm, the wavelength was 460.8 nm operated at an energy of 58 and a current of 8 mA.
This analysis was performed using a Perkin Elmer Elan 5000 system equipped with a cross-flow nebulizer. The power was set at 1000 W and the Argon-gas flow was 12 L/min and 0.8 L/min of the torch and plasma gas, respectively.

strontium alpha-ketoglutarate [α-ketogluterate]
SOLUBILITY AT 40° C., In water: 3534 mg/L
SOLUBILITY AT ROOM TEMPERATURE (22-24° C.), In water: 1316 Mg/L
SOLUBILITY AT ROOM TEMPERATURE (22-24° C.), pH 7.5 (pH 7.5): 2252 Mg/L
